Antibody variant affinities, Ab-95 light chain, assay 2

The target is the same throughout: PDVDLGDISGINAS, from the HR2 region of SARS-CoV-2 spike.

Parent scFv Ab-95: VH joined to VL by three GGGGS repeats. Changes lie in the light chain CDRs alone.
VH: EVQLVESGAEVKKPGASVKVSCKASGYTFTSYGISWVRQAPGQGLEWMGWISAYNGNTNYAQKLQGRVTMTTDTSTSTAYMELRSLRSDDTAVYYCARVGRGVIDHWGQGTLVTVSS
VL: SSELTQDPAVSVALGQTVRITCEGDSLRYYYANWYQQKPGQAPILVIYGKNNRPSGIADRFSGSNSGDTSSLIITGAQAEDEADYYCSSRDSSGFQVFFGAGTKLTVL

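The parent was found by panning a naive human phage display library on the peptide. AAYL52 was designed without a model: most single CDR substitutions and a random sample of double and triple ones. The assay is AlphaSeq: two haploid yeast populations carry antibody and antigen on their surface. Binding brings cells together so that they mate, and sequencing counts the barcode pairs among the diploids. Each replicate has its own calibration line, from reference interactions of the BCL2 family. There are three technical replicates.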

Variants are written as CDR1, CDR2 and CDR3 of the light chain (limits as in the source). Parent: EGDSLRYYYAN, GKNNRPS, SSRDSSGFQVF.
Affinities are written as log10 Kd with Kd in nM; a lower number is a better binder.
Averages over replicates are reported, and they cover detected replicates only.
Where no diploid with the target was found in that replicate, the entry reads "n.d.": below detection, most likely a poor binder, though not proof of it.
Nonspecific signal, from three strains lacking the peptide, appeared in 28% of pairings of library AAYL52, centred on 3.91 (5% of these signals below 2.90); values are not corrected for it. For each scFv, signals with the empty controls are counted beside the result, with their mean in brackets.

{"CDR-L1": "EGDSLRYYYAQ", "CDR-L2": "GKNNRNS", "CDR-L3": "DSRDSSGFQVF", "log10 Kd (nM) by replicate": "5.41 / n.d. / n.d.", "mean log10 Kd (nM)": "5.41", "empty controls": "2/9 (3.39)"}
{"CDR-L1": "EGESLRYYYAN", "CDR-L2": "GKNNRPS", "CDR-L3": "SSRDSSRFQCF", "log10 Kd (nM) by replicate": "2.47 / 2.13 / 1.96", "mean log10 Kd (nM)": "2.19", "empty controls": "3/9 (4.35)"}
{"CDR-L1": "EGDSLRYYYAN", "CDR-L2": "GKNNRPS", "CDR-L3": "SSRDSKGFQCF", "log10 Kd (nM) by replicate": "2.30 / 2.37 / 2.16", "mean log10 Kd (nM)": "2.28", "empty controls": "2/9 (3.40)"}
{"CDR-L1": "EGDSLRYYYAE", "CDR-L2": "GKNNRPS", "CDR-L3": "SLRDFSGFQVF", "log10 Kd (nM) by replicate": "4.77 / n.d. / n.d.", "mean log10 Kd (nM)": "4.77", "empty controls": "3/9 (4.70)"}
{"CDR-L1": "EGDSLRYYHAN", "CDR-L2": "GKNNRVS", "CDR-L3": "SSRDSSGFIVF", "log10 Kd (nM) by replicate": "3.08 / n.d. / 4.19", "mean log10 Kd (nM)": "3.64", "empty controls": "1/9 (3.24)"}
{"CDR-L1": "EEDSLRYYYAN", "CDR-L2": "NKNNRPS", "CDR-L3": "DSRDSSGFQVF", "log10 Kd (nM) by replicate": "n.d. / n.d. / n.d.", "mean log10 Kd (nM)": "n.d.", "empty controls": "3/9 (3.46)"}
{"CDR-L1": "MGDSLRYYYAN", "CDR-L2": "GKNKRPS", "CDR-L3": "SSRDSSGFQVF", "log10 Kd (nM) by replicate": "2.54 / 3.17 / 2.70", "mean log10 Kd (nM)": "2.80", "empty controls": "1/9 (2.82)"}
{"CDR-L1": "EGGSLRYYYAL", "CDR-L2": "GKNARPS", "CDR-L3": "SSRDSSGFQVF", "log10 Kd (nM) by replicate": "3.19 / 2.40 / 3.56", "mean log10 Kd (nM)": "3.05", "empty controls": "2/9 (4.60)"}
{"CDR-L1": "EGDTLRYYYAN", "CDR-L2": "GKNNRES", "CDR-L3": "SSRDSSGFLVF", "log10 Kd (nM) by replicate": "n.d. / n.d. / n.d.", "mean log10 Kd (nM)": "n.d.", "empty controls": "2/9 (3.27)"}
{"CDR-L1": "EGDSLRYYYAN", "CDR-L2": "GANNRPS", "CDR-L3": "GSRDDSGFQVF", "log10 Kd (nM) by replicate": "3.03 / 3.91 / n.d.", "mean log10 Kd (nM)": "3.47", "empty controls": "5/9 (4.28)"}
{"CDR-L1": "EGDALRYYYAN", "CDR-L2": "GKNNAPS", "CDR-L3": "SSRDSKGFQVF", "log10 Kd (nM) by replicate": "4.57 / n.d. / 3.79", "mean log10 Kd (nM)": "4.18", "empty controls": "2/9 (3.65)"}
{"CDR-L1": "EGDFLRYYYGF", "CDR-L2": "GKNNRPS", "CDR-L3": "SSRDSSGFQVF", "log10 Kd (nM) by replicate": "n.d. / n.d. / n.d.", "mean log10 Kd (nM)": "n.d.", "empty controls": "3/9 (3.91)"}
{"CDR-L1": "QGDSLRYYYAN", "CDR-L2": "GKNNRPS", "CDR-L3": "SSRDSPGFQVP", "log10 Kd (nM) by replicate": "2.32 / 2.29 / 2.50", "mean log10 Kd (nM)": "2.37", "empty controls": "7/9 (4.08)"}
{"CDR-L1": "EGDSLRYYYAN", "CDR-L2": "GKNNRPY", "CDR-L3": "MSRDSSGMQVF", "log10 Kd (nM) by replicate": "3.68 / 3.18 / n.d.", "mean log10 Kd (nM)": "3.43", "empty controls": "3/9 (3.66)"}
{"CDR-L1": "EGDSLRHYYAN", "CDR-L2": "GKNNRPS", "CDR-L3": "SSRDSSFFQPF", "log10 Kd (nM) by replicate": "2.38 / 2.89 / 1.49", "mean log10 Kd (nM)": "2.25", "empty controls": "0/9"}
{"CDR-L1": "EGDSLRYYTAN", "CDR-L2": "GKNNRPS", "CDR-L3": "SSRTSNGFQVF", "log10 Kd (nM) by replicate": "3.06 / n.d. / 4.13", "mean log10 Kd (nM)": "3.60", "empty controls": "3/9 (3.69)"}
{"CDR-L1": "EGDSLRYYYAN", "CDR-L2": "GKNQRPS", "CDR-L3": "SSRDSSGFHVF", "log10 Kd (nM) by replicate": "1.94 / 1.70 / 1.51", "mean log10 Kd (nM)": "1.72", "empty controls": "1/9 (3.56)"}
{"CDR-L1": "EGYSLRYYYAN", "CDR-L2": "GKPNRPS", "CDR-L3": "SSRDHSGFQVF", "log10 Kd (nM) by replicate": "n.d. / n.d. / 4.22", "mean log10 Kd (nM)": "4.22", "empty controls": "5/9 (3.80)"}
{"CDR-L1": "EGDSLRYYYAN", "CDR-L2": "GKNNRPA", "CDR-L3": "SSRFMSGFQVF", "log10 Kd (nM) by replicate": "3.19 / 2.49 / 2.34", "mean log10 Kd (nM)": "2.67", "empty controls": "3/9 (3.33)"}
{"CDR-L1": "EGDSLRYYKAN", "CDR-L2": "FKNNRPS", "CDR-L3": "SSRDSSGFQHF", "log10 Kd (nM) by replicate": "4.44 / n.d. / 4.40", "mean log10 Kd (nM)": "4.42", "empty controls": "2/9 (3.99)"}
{"CDR-L1": "EGDSLRYYNAN", "CDR-L2": "GKNNRPS", "CDR-L3": "SSNDSSGFEVF", "log10 Kd (nM) by replicate": "4.79 / 3.06 / n.d.", "mean log10 Kd (nM)": "3.93", "empty controls": "1/9 (3.72)"}
{"CDR-L1": "EGDSLRYYYAN", "CDR-L2": "GKNNKPS", "CDR-L3": "SSRYSSGCQVF", "log10 Kd (nM) by replicate": "4.27 / 3.78 / 2.43", "mean log10 Kd (nM)": "3.49", "empty controls": "1/9 (4.95)"}
{"CDR-L1": "EGDSLRYYYAN", "CDR-L2": "GKNNRPS", "CDR-L3": "SSTDSSGFQVF", "log10 Kd (nM) by replicate": "2.61 / 2.23 / 2.42", "mean log10 Kd (nM)": "2.42", "empty controls": "2/9 (2.95)"}
{"CDR-L1": "EGDSLRYYYAQ", "CDR-L2": "GKNNRPS", "CDR-L3": "SSRYSSGFQVF", "log10 Kd (nM) by replicate": "2.60 / 5.44 / 3.13", "mean log10 Kd (nM)": "3.72", "empty controls": "1/9 (4.60)"}
{"CDR-L1": "EGDSLHYYYAN", "CDR-L2": "GKNNRPS", "CDR-L3": "TSRHSSGFQVF", "log10 Kd (nM) by replicate": "n.d. / 4.24 / 3.54", "mean log10 Kd (nM)": "3.89", "empty controls": "3/9 (4.04)"}
{"CDR-L1": "EGDSLIYYYAN", "CDR-L2": "AKNNRPS", "CDR-L3": "DSRDSSGFQVF", "log10 Kd (nM) by replicate": "4.48 / n.d. / n.d.", "mean log10 Kd (nM)": "4.48", "empty controls": "2/9 (3.39)"}
{"CDR-L1": "EGDSLRYYYNN", "CDR-L2": "GKNNRPQ", "CDR-L3": "SSRDSKGFQVF", "log10 Kd (nM) by replicate": "2.36 / 2.86 / 2.92", "mean log10 Kd (nM)": "2.72", "empty controls": "0/9"}
{"CDR-L1": "MGDSLSYYYAN", "CDR-L2": "GRNNRPS", "CDR-L3": "SSRDSSGFQVF", "log10 Kd (nM) by replicate": "2.25 / 2.34 / 1.98", "mean log10 Kd (nM)": "2.19", "empty controls": "4/9 (3.91)"}
{"CDR-L1": "EGDSLRNYYAN", "CDR-L2": "GKNIRPS", "CDR-L3": "SSRDSLGFQVF", "log10 Kd (nM) by replicate": "1.98 / 2.36 / 1.74", "mean log10 Kd (nM)": "2.03", "empty controls": "1/9 (5.15)"}

Source: Engelhart et al. 2022 (doi:10.1038/s41597-022-01779-4), MIT Lincoln Laboratory and A-Alpha Bio; data file from the FLAb repository.